PubChem BioAssay AID540364 (The Scripps Research Institute Molecular Screening Center, 2011)
This is a selection; strong and weak results do not stand in their true shares. Calls of active or inactive are those of the source.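 How the source made its calls: active means activation above the average of all compounds screened plus 3 SD, cutoff fixed separately per campaign (cut at about 7.5% in these data); inactive means the rest.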

assay: GAA850 frataxin promoter reporter upregulation – cell-based, luciferase luminescence, HEK293 lucGAA850, primary screen (AID 540364); conditions: HEK293 lucGAA850 FXN promoter luciferase reporter, 24 h; at 6 µM; hits give high values; percent of 10 µM SAHA response;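 further: 0% = DMSO wells and 100% = 10 µM SAHA wells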

| Structure (SMILES) | activation |
| --- | --- |
| N#C/C(=C\c1ccc(N(CCBr)CCBr)cc1)C(N)=O | inactive: -4.47% |
| CC(=O)c1ccc(N2CC2c2ccncc2)cc1 (stereo not drawn) | inactive: -0.29% |
| CC(=O)Nc1ccc(Oc2c([N+](=O)[O-])cc([N+](=O)[O-])cc2[N+](=O)[O-])cc1 | inactive: -0.13% |
| CC(=O)Nc1ccc([As](=O)(O)O)c(O)c1 | inactive: 1.34% |
| Cc1ccc(NP(=O)(Oc2cccc(C)c2)Oc2cccc(C)c2)nc1 | inactive: 0.45% |
| c1ccc(-c2nn[nH]n2)c(-c2nn[nH]n2)c1 | inactive: 0.92% |
| O=C(NC1CCS(=O)(=O)C1)NP(=S)(Oc1ccccc1)Oc1ccccc1 (stereo not drawn) | inactive: -1.84% |
| CCNC(=S)/N=C(\N)N[N+](=O)[O-] | inactive: 0.08% |
| O=P1(N(CCCl)CCCl)OCCC2CCCCN21 (stereo not drawn) | inactive: -0.65% |
| CCC(=O)N1C2C3N(C(=O)CC)C1C1N(C(=O)CC)C(C(N1C(=O)CC)N3C(=O)CC)N2C(=O)CC | inactive: -1.32% |
| O=C(OC1CN2CCC1CC2)c1ccccc1 (stereo not drawn) | inactive: 2.2% |
| Cc1ccc(OP(=O)(Nc2ccccn2)Oc2ccc(C)cc2)cc1 | inactive: -1.95% |
| CC(=O)NC(SC(=S)N(CC(C)C)CC(C)C)C(Cl)(Cl)Cl (stereo not drawn) | inactive: 1.44% |
| COC(=O)c1cc2c(s1)N=C(c1ccccc1)N(C)P2(=O)N1CCOCC1 (stereo not drawn) | inactive: 0.26% |
| CN(C)C(=O)Oc1noc2ccccc12 | inactive: -0.64% |
| O=c1c2cc([N+](=O)[O-])ccc2[nH]c2c([N+](=O)[O-])cc([N+](=O)[O-])cc12 | inactive: -3.06% |
| Cc1ccccc1OP(=O)(Nc1ccccn1)Oc1ccccc1C | inactive: -0.04% |
| CC(NC(=O)COC(=O)C(O)(c1ccccc1)c1ccccc1)c1ccccc1 (stereo not drawn) | inactive: -1.89% |
| O=P(Nc1nccs1)(c1ccccc1)c1nc2ccccc2s1 (stereo not drawn) | inactive: 4.55% |
| O=P(Nc1nccs1)(Oc1ccccc1)Oc1ccccc1 | inactive: 1.23% |
| CCOP1(=S)c2c(C)nn(CCC#N)c2N=C(c2ccccc2F)N1C (stereo not drawn) | inactive: 4.11% |

| Structure (SMILES) | activation |
| --- | --- |
| CS(=O)(=O)c1cc([N+](=O)[O-])c2no[n+]([O-])c2c1 | inactive: -1.25% |
| O=C(O)COc1ccc([As](=O)(O)O)cc1[N+](=O)[O-] | inactive: 0.7% |
| Nc1ccccc1[As](=O)(O)c1ccccc1 | inactive: 0.62% |
| NC(=O)Nc1ccc([As](=O)(O)O)cc1 | inactive: 1% |
| CN(C(=O)Cc1ccccc1)[C@@H]1CC[C@]2(CCCO2)C[C@H]1N1CCCC1 | inactive: -2.04% |
| CCOP1(=S)c2c(C)nn(CCC#N)c2N=C(c2ccc(F)cc2)N1C (stereo not drawn) | inactive: 5% |
| N#CCCN(C(=O)COC(=O)C(O)(c1ccccc1)c1ccccc1)c1ccc(F)cc1 | inactive: -1.95% |
| CN(C(=O)Cc1ccc(Cl)c(Cl)c1)[C@H]1CC[C@@]2(CCCO2)C[C@@H]1N1CCCC1 | inactive: 1.08% |
| CN(C)C(=O)c1cc([N+](=O)[O-])cc2c1-c1c(cc([N+](=O)[O-])cc1[N+](=O)[O-])C2=O | inactive: -0.03% |
| O=[N+]([O-])c1ccc2c(c1)nnn2O | inactive: -1.53% |
| O=C(OC1CN2CCC1CC2)c1ccc(Cl)cc1 (stereo not drawn) | inactive: -0.1% |
| CS(=O)(=O)c1ccc(Cl)c(NC(=O)COC(=O)C(O)(c2ccccc2)c2ccccc2)c1 | inactive: -0.07% |
| COc1cc(C(=O)NCC2(N3CCOCC3)CCCCC2)cc(Cl)c1OC(C)C | inactive: -0.5% |
| O=[As](O)(O)c1cccnc1 | inactive: 0% |
| O=[As](O)(c1cccc(O)c1)c1cccc(O)c1 | inactive: 0.59% |
| Cc1cccc(OCC(=O)OC2CN3CCC2CC3)c1 (stereo not drawn) | inactive: 3.02% |
| Nc1cccc2c([As](=O)(O)O)cccc12 | inactive: -2.1% |
| Cc1ccc(NCCc2c([N+](=O)[O-])cc([N+](=O)[O-])cc2[N+](=O)[O-])cc1 | inactive: 3.6% |
| CCCOP(=S)(Nc1nc(N)cc(=O)[nH]1)OCCC | inactive: 2.7% |
| CCOP(=O)(Nc1cccc2ccccc12)OCC | inactive: -0.22% |
| COc1cc(C2NCCC3(OCCO3)C2(C)C)cc(OC)c1OC (stereo not drawn) | inactive: -1.25% |

| Structure (SMILES) | activation |
| --- | --- |
| CCOP(=O)(NC(=NC(C)c1ccccc1)NC(C)c1ccccc1)OCC (stereo not drawn) | inactive: -0.87% |
| CCC1=CC2Cc3nc4ccc(Cl)cc4c(N)c3C(C1)C2 (stereo not drawn) | inactive: -6.39% |
| O=P1(Nc2ccccn2)COc2ccccc2OC1 | inactive: 3.12% |
| CN(CCCl)Cc1cc(Cl)c(NC2=NCCN2)c(Cl)c1 | inactive: 0.49% |
| CCOP(=O)(Nc1ccc(C)cn1)OCC | inactive: -2.66% |
| CC(C)(C)C(=O)NC(Sc1ncccn1)C(Cl)(Cl)Cl (stereo not drawn) | inactive: 2.66% |
| Clc1n[nH]nc1-c1nn[nH][15n]1 | inactive: 0.77% |
| O=P1(N(CCCl)CCCl)NCCC(C(F)(F)F)O1 (stereo not drawn) | inactive: 1.14% |
| COc1ccccc1CNC(=O)COC(=O)C(O)(c1ccccc1)c1ccccc1 | inactive: 0.37% |
| CN(C(=O)Cc1ccc(Cl)c(Cl)c1)[C@@H]1CCCC[C@H]1N1CCCC1 | inactive: -1.69% |
| CC(C)/C=N\N=C(\N)N[N+](=O)[O-] | inactive: -0.81% |
| CC1(CBr)Cn2c(nc3ccccc3c2=O)S1 (stereo not drawn) | inactive: 1.32% |
| Cc1ccc(C(=O)OC2CN3CCC2CC3)cc1 (stereo not drawn) | inactive: 0.6% |
| CC1CCC(C(C)C)C(OP(=O)(Nc2ccccn2)c2ccccc2)C1 (stereo not drawn) | inactive: -0.62% |
| Cc1nn(-c2ccccc2)c2c1P(=O)(N1CCOCC1)N(C)C(c1ccccc1)=N2 (stereo not drawn) | inactive: -0.59% |
| CN(C)C1(CNC(=O)c2ccc(S(C)(=O)=O)cc2)CCCCC1 | inactive: 1.37% |
| CCCC1OP(=O)(Nc2ccccc2)OCC1CC (stereo not drawn) | inactive: -0.39% |
| O=C(/C=C/c1ccccc1)OC1CN2CCC1CC2 (stereo not drawn) | inactive: -0.3% |
| O=P1(Nc2ncccn2)COc2ccccc2OC1 | inactive: -0.67% |
| Nc1cccc([As](=O)(O)c2ccccc2)c1 | inactive: 1.12% |
| NS(=O)(=O)c1cccc(NC(=O)COC(=O)C(O)(c2ccccc2)c2ccccc2)c1 | inactive: 0.16% |
